Experimental data: paper PMC9692677, “Virtual Cocrystal Screening of Adefovir Dipivoxyl: Identification of New Solid Forms with Improved Dissolution and Permeation Profiles” (Pharmaceutics, 2022)
“And” between values parts separate entries of the source, which are not always exact repeats. Equal entries are not always repeated. Where two headings read alike, the source gives them in different places.

How the values were obtained:
[1] = Intrinsic dissolution at individual pH sectors (GLpKa, 3 mm disks, 30 min); settings: pH 1.5; listed as AD–orcinol cocrystal

CC(C)(C)C(=O)OCOP(=O)(COCCn1cnc2c(N)ncnc21)OCOC(=O)C(C)(C)C.Cc1cc(O)cc(O)c1 [AD–Orc cocrystal]
Dissolution rate relative to AD single solid form (fold faster) [1]: 3.2 fold and 2 fold | AD Solubility (pH 1.5): 289 (9) μM | AD Solubility (pH 4): 138 (25) μM | AD Solubility (pH 5.5): 92 (3) μM | AD Solubility (pH 7.4): 88 (7) μM
